This note sets out measurements from ChEMBL document CHEMBL4024804 (J Med Chem, 2018).

Each structure is given as a SMILES string.

The nature of this data set: in vivo. To be noted: mouse.

The compound `COc1ccc(N(C)c2nc(C)nc3ccccc23)cc1.Cl` [VERUBULIN HYDROCHLORIDE] came in with an MTD of 1 mg/kg.
